# According to patent US20110165156A1 (published 2011):
# B1: Mab 2E10 (antibody, V domains shown)
# VH: QVQLKESGPGLVAPSKSLSITCTVSGSSLDSFDISWIRQSPGKGLEWLGVIWTGGGTNYNSGFMSRLRITKDNSKSQVLLKMNSLQSDDTAIYYCVRDPRLYFDVWGAGTTVTVSS
# VL: NIVMTQSPKSMSMSVGERVTLSCKASEDVVTYVSWYQQKPDQSPKLLIYGASNRYTGVPDRFTGSGSATDFTLTISSVQAEDLADYYCGQTFSYPTFGTGTKLEIK
# notes: Murine monoclonal antibody from a hybridoma
# B2: Mab 2F11 (antibody, V domains shown)
# VH: QVQLKESGPGLVAPSQSLSITCTVSGFSLTTYDISWIRQSPGKGLEWLGVIWTDGGTNYNSPFMSRLSIRKDNSKSQVFLKMNRLQTDDTAIYYCVRDQRLYFDVWGAGTTVTVSS
# VL: B1 VL with S22N, V30N, K39Q, D41E, S65G, A68T, Y87F, T91S
# notes: Murine monoclonal antibody from a hybridoma; also called <CSF-1R>Mab 2F11; muMab 2F11
# B3: Mab 1G10 (antibody, V domains shown)
# VH: B2 VH with Q1R, T31S, T53S, D54G, S68R, R70S, N73D, K75R, M82V, Q99L
# VL: B1 VL with N1K, M13V, T20S, V30G, D41E, A51S, Y87S, T91S, S93T
# notes: as for B1
# B4: Mab 2H7 (antibody, V domains shown)
# VH: B1 VH with S40P, T70S, L79F, N83S
# VL: B1 VL with D41E, V78I
# notes: as for B1
# Target: human wildtype CSF-1R (wt CSF-1R), full-length, on cells (human, UniProt P07333 20-972)
# Test: cell-based or functional assay
row,Binder,"wtCSF-1R IC50 (cell viability, 3D culture, CellTiterGlo)"
1,B1,0.49 µg/mL
2,B2,1.1 µg/mL
3,B3,0.29 µg/mL
4,B4,0.31 µg/mL

# Target: human mutant CSF-1R L301S Y969F, on cells (human, UniProt P07333 20-972)
# Test: cell-based or functional assay
row,Binder,"Mutant CSF-1R IC50 (cell viability, 3D culture, CellTiterGlo)"
1,B1,4.9 µg/mL
2,B2,8 µg/mL
3,B3,14.2 µg/mL
4,B4,5.3 µg/mL

# Target: T1, human CSF-1R fragment delD4 (comprising the extracellular subdomains D1-D3 and D5) (human, UniProt P07333 20-512)
# T1 construct: Made from hCSF1R-delD4-V1-PreSc-hFc-His, released from the Fc with PreScission protease; also called hCSF-1R-delD4
# Test: SPR Biacore T100, 25 C, reference-subtracted signal 10 s after end of injection
row,Binder,binding signal (RU) before it was set as 0
1,B1,-2 RU
2,B2,-3 RU
3,B3,-6 RU
4,B4,-9 RU

# Where a chain is given by its changes, count along the chain named.
